By UniProt entry, the sequences of proteins in these tests, tags left out. Where a name states a change or a piece, a line headed by the entry shows the natural chain unless it says otherwise.
UniProt P28845: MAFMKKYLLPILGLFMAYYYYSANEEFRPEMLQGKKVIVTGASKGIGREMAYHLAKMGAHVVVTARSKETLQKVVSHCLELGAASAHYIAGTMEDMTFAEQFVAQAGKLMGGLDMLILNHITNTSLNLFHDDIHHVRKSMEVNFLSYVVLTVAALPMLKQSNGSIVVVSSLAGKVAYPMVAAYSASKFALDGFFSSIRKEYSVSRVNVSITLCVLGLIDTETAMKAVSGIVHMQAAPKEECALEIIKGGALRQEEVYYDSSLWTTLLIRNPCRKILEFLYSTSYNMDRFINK

In US12304894B2, “Derivatives of adamantyl oxadiazoles and pharmaceutically acceptable solvates, hydrates and salts thereof, pharmaceutical composition comprising same, synthesis method, suitable for use as effective and selective inhibitors of the reductase activity of the enzyme 11-beta dehydrogenase type 1 …” (PONTIFICIA UNIVERSIDAD CATOLICA DE CHILE, priority 2019, dated 2025):

Legend:
[1] = target: recombinant 11β-HSD1 enzyme (Homo sapiens (Human), UniProt P28845); assay: 11β-HSD1 oxidase activity (HTRF Cortisol Kit); assay type: biochemical; conditions: remaining activity at 100 uM compound
Method: Determination of 11β-HSD1 Oxidase Activity
The determination of the 11β-HSD1 oxidase activity is carried out by measuring the concentration of cortisone produced in the reaction with and without the compounds. The Cortisol Kit (Cisbio) product was used for that purpose.
For the analysis, the compounds are reconstituted in DMSO in a stock of 10 mM concentration, from which serial dilutions were prepared for the efficiency curve.
The recombinant 11β-HSD1 enzyme dilutions were prepared in 20 mM Tris Buffer 5 mM EDTA pH 6.0 (Tris buffer).
Initially, the enzyme concentration to be used was determined. For this purpose, a plate for HRTF was prepared with Tris buffer with 100 nM cortisol and 200 μM NADP+, including in the wells of the plate for HTRF together with the enzyme in a 4:1 ratio, respectively, and incubated for 2 hours at 37° C. After this time, the reagents of the Cortisol kit, Cortisol d2 and Cortisol cryptate in sample ratio, Cortisol d2 and cortisol cryptate 2:1:1 were added, incubating this new reaction for 1 hour at room temperature. Subsequently, the fluorescence was determined at 665 and 620 nm.
Once the enzyme concentration to be used has been determined, the Cortisol Kit protocol is continued to determine the efficacy curve of the compounds. […] They were then incubated at room temperature for 1 hour to finally read the fluorescence at 665 and 620 nm.

11β-HSD2 = 11β-HSD2 oxidase activity in human hepatic microsomes (HTRF Cortisol Kit); assay type: biochemical; conditions: remaining activity at 100 nM compound
Method: Determination of 11β-HSD2 Oxidase Activity
The concentration of cortisone produced in the reaction, with and without the compounds, was determined using the Cortisol Kit (Cisbio) product in order to evaluate the 11β-HSD2 oxidase activity.
As in the previous assays, the compounds are reconstituted in DMSO to 10 mM stock, in order to subsequently make serial dilutions to determine the efficacy curve.
To determine the IC50 of the compounds, a model of donor human hepatic microsomes (BioReclamationIVT Inc.) was used, which was prepared in Tris Buffer 20 mM EDTA 5 mM pH 6.0 (Tris buffer).
To perform the assay, the HTRF plate was prepared containing Tris buffer, 100 nM cortisol and 200 μM NAD^+. […]
After the incubation time, the reagents of the Cortisol kit, Cortisol d2 and Cortisol cryptate, in a sample ratio, Cortisol d2 and cortisol cryptate 2:1:1 are added. […] The plate was incubated for 1 hour at room temperature to later read at 665 and 620 nm.
Once the enzyme concentration to be used has been determined, the Cortisol Kit protocol is continued to determine the efficacy curve for the compounds. […]
After incubating the plate for 2 hours, the reagents of the cortisol kit, cortisol d2 and cortisol cryptate, are added to the corresponding wells as indicated above. They are then incubated at room temperature for 1 hour to finally read the 665 and 620 nm fluorescence.

Compound: c1ccc(CCc2nc(C34CC5CC(CC(C5)C3)C4)no2)nc1 [BD-45, 1-(2-pyridyl)-2-(3-adamantyl-1,2,4-oxadiazol-5-yl)ethane]
- 11b-HSD1 oxidase (activ rem %) 100 uM [1]: 114.0%

Compound: 1-(3-pyridyl)-2-(3-adamantyl-1,2,4-oxadiazol-5-yl)ethane [BD-44]
- 11b-HSD2 oxidase (activ rem %) Microcosms 100 nM (11β-HSD2): 114.1%
